PMC5851014, “Mechanistic Studies of 1-Deoxy-D-Xylulose-5-Phosphate Synthase from Deinococcus radiodurans” (Biochemistry & molecular biology journal, 2018)
Like-named read-outs stand apart in the source and are kept apart here.

Legend:
[1] = molecular target: T1, 1-deoxy-D-xylulose-5-phosphate synthase (DXPS) (Deinococcus radiodurans, UniProt Q9RUB5); assay: biochemical
T1 construct: gene dxs

[2] = molecular target: T1, 1-deoxy-D-xylulose-5-phosphate synthase (DXPS); assay: biochemical; remark: listed apart in the source
purified protein [3] = substrate: O=CC(O)COP(=O)(O)O; assay: purified protein; details: thiamine pyrophosphate (TPP) and divalent metal (Mg(II); MnCl2 in assay) pocket composed of amino acids from domains I and II; Arg-423 hydrogen bonds to the phosphate of GAP
purified protein [4] = substrate: CC(=O)C(=O)O; assay: purified protein; details: thiamine pyrophosphate (TPP) and divalent metal (Mg(II); MnCl2 in assay) His-304, near the thiazolium C2 atom, likely contributes to pyruvate binding

Molecule: CC(=O)[C@@H](O)[C@H](O)COP(=O)(O)O [DXP, 1-deoxy-D-xylulose-5-phosphate]
- Ki [1]: 130 ± 32 µM

Molecule: O=C(O)C(=O)CF [F-Pyr, β-fluoropyruvate]
- Ki [2]: 3.3 ± 0.4 µM

B1: 1-deoxy-D-xylulose-5-phosphate synthase (DXPS) (Deinococcus radiodurans R1 = ATCC 13939 = DSM 20539) (protein)
chain: MNELPGTSDTPLLDQIHGPKDLKRLSREQLPALTEELRGEIVRVCSRGGLHLASSLGAVDIITALHYVLDSPRDRILFDVGHQAYAHKILTGRRDQMADIKKEGGISGFTKVSESEHDAITVGHASTSLANALGMALARDAQGKDFHVAAVIGDGSLTGGMALAALNTIGDMGRKMLIVLNDNEMSISENVGAMNKFMRGLQVQKWFQEGEGAGKKAVEAVSKPLADFMSRAKNSTRHFFDPASVNPFAAMGVRYVGPVDGHNVQELVWLLERLVDLDGPTILHIVTTKGKGLSYAEADPIYWHGPAKFDPATGEYVPSSAYSWSAAFGEAVTEWAKTDPRTFVVTPAMREGSGLVEFSRVHPHRYLDVGIAEEVAVTTAAGMALQGMRPVVAIYSTFLQRAYDQVLHDVAIEHLNVTFCIDRAGIVGADGATHNGVFDLSFLRSIPGVRIGLPKDAAELRGMLKYAQTHDGPFAIRYPRGNTAQVPAGTWPDLKWGEWERLKGGDDVVILAGGKALDYALKAAEDLPGVGVVNARFVKPLDEEMLREVGGRARALITVEDNTVVGGFGGAVLEALNSMNLHPTVRVLGIPDEFQEHATAESVHARAGIDAPAIRTVLAELGVDVPIEV
- Km (purified protein [3]): 50 ± 10 µM
- kcat (purified protein [3]): 7.9 s⁻¹
- kcat/Km (purified protein [3]): 150000 M⁻¹ s⁻¹
- Km (purified protein [4]): 280 ± 30 µM
- kcat (purified protein [4]): 7.4 s⁻¹
- kcat/Km (purified protein [4]): 26000 M⁻¹ s⁻¹
